Measured values as given in patent publication US20070155746A1, “NOVEL SUBSTITUTED PYRIDINYLOXY AND PYRIMIDINYLOXY AMIDES USEFUL AS INHIBITORS OF PROTEIN KINASES” (KALYPSYS, INC., priority 2005, published 2007).

By UniProt entry, the sequences of proteins in these tests, tags left out. Residues count along the entry.
UniProt P09619, 33-1106 limits assumed: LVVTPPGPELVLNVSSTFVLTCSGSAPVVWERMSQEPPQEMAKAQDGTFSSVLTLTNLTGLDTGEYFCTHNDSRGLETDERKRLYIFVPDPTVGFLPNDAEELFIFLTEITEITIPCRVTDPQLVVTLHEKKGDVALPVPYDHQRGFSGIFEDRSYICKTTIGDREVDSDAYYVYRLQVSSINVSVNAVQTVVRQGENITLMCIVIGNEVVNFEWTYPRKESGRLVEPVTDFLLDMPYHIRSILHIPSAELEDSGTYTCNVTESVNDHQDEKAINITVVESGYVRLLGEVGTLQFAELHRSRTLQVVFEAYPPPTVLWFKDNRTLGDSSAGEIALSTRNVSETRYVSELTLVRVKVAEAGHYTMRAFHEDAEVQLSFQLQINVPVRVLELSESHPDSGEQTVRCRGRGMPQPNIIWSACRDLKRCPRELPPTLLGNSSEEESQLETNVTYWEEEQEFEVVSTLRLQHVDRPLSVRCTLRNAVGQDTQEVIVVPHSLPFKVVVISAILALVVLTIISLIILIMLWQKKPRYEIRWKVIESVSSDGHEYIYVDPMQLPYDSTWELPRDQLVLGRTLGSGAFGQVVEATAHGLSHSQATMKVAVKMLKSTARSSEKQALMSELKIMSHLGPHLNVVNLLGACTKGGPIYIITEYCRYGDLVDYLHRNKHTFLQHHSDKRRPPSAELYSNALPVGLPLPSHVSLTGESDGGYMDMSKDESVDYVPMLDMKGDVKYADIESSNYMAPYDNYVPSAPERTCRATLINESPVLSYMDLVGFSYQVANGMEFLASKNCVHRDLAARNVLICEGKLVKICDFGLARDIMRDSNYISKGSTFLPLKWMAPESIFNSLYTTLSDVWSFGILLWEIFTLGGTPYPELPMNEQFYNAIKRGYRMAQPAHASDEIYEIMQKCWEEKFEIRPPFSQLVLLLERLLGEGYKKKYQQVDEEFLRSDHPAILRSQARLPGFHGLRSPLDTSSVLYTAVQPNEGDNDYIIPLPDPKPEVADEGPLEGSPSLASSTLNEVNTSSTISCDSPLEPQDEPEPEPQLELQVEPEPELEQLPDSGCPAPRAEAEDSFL
UniProt P15056, 416-766 limits assumed: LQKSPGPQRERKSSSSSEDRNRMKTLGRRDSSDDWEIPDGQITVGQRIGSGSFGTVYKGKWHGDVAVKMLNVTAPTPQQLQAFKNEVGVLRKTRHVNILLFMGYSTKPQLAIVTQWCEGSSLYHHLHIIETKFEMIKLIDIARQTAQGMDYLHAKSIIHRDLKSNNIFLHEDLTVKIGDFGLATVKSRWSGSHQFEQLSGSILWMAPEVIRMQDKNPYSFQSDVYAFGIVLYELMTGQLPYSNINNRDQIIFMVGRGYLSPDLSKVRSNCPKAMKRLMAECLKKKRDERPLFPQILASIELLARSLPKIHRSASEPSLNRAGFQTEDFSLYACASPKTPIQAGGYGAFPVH
UniProt P35968, 20-1356 limits assumed: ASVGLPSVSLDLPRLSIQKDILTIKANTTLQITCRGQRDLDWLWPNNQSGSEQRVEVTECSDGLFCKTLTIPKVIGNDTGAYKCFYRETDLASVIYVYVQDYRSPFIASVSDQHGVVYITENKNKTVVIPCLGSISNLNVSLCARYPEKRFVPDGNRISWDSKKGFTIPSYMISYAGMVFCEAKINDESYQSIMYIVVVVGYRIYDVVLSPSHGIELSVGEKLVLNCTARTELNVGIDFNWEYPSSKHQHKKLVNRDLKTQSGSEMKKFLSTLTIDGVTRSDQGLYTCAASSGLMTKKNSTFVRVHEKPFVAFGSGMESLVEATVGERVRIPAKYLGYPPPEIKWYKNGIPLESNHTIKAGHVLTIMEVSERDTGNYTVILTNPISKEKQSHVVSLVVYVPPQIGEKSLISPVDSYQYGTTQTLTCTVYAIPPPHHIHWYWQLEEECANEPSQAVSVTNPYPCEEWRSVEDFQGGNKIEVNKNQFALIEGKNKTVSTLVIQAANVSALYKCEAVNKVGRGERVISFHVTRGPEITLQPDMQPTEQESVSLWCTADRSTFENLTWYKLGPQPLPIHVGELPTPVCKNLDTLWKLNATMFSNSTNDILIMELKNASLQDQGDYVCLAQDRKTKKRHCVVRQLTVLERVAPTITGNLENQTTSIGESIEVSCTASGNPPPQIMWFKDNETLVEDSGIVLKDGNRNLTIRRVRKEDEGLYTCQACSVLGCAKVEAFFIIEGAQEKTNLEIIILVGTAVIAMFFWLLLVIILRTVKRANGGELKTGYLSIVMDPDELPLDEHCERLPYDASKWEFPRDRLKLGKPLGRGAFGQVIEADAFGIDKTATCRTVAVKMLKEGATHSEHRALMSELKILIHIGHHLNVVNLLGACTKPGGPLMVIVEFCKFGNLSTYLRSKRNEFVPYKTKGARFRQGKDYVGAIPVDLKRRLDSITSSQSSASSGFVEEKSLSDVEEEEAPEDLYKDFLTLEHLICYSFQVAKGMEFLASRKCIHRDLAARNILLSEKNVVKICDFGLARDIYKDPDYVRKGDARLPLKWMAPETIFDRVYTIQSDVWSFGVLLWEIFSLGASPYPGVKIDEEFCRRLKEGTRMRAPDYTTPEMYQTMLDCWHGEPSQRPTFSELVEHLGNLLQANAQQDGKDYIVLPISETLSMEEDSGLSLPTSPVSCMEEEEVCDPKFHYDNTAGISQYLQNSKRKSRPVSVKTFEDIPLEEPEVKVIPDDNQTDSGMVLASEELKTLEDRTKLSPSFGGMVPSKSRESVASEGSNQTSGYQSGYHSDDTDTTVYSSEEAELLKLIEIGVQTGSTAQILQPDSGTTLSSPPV

Tests used:
PDGFRβ kinase = PDGFRβ kinase (Homo sapiens, UniProt P09619); experiment: In vitro PDGFRβ kinase assay; conditions: read-out: PDGFRβ Assay IC50 μM
Method: (§1) In Vitro VEGFR2 and PDGFRP Kinase Assays
(§2) 2.5 μl of ADP Quest assay buffer (DiscoverX Inc., cat. #90-0071) containing 20 ng VEGFR2 kinase (Invitrogen Inc, cat. #PV3660) or 25 ng PDGFRβ kinase (Invitrogen Inc., cat. #P3082) is dispensed to wells of a 1536 multi-well, black solid plate. 60 nl of 100× concentration of test compound in DMSO is dispensed to the well by passive pin transfer and incubated for 10 minutes at room temperature (approx. 22° C.). 2.5 μl of ADP Quest assay buffer containing 0.25 μg of poly Glu:Tyr (4:1) substrate peptide (Upstate Inc., cat. #12-440) and 60 μM ATP is then dispensed and the kinase reaction allowed to incubate at 30° C. for 2 hours. […] After an additional 30 minute incubation at room temperature, fluorescence intensity is measured on a Molecular Devices Aquest multi-mode plate reader or other suitable plate reader (fluorescence excitation filter: 530/25 [Peak(nm)/FWHM passband(nm)]; dichroic beamsplitter: 561 nm longpass; fluorescence emission filter: 580/10 [Peak(nm)/FWHM passband(nm)]. The assay measures the conversion of a non-fluoresecent molecule to fluorescent resorufin, which correlates with kinase activity. Negative control activity is measured with DMSO lacking any test compound. The positive control is [N-(3-trifluoromethyl-4-chlorophenyl)-N′-(4-(2-methylcarbamoyl-pyridin-4-yl)oxyphenyl)urea], aka Bay 43-9006. […]

[1] = target: human B-Raf protein kinase (Homo sapiens, UniProt P15056); experiment: In vitro B-Raf/Mek1 composite kinase assay; conditions: read-out: B-Raf Kinase Assay IC50 μM
Method: In Vitro B-Raf/Mek1 Composite Kinase Assay
2.5 μl of B-Raf kinase buffer (20 mM MOPS [pH 7.2], 25 mM sodium glycerophosphate, 2 mM EGTA [pH 8.0], 1 mM sodium orthovanadate, 1 mM dithiothreitol, 10 mM MgCl2, 0.03% Brij-35, 0.3 mg/ml bovine serum albumin) containing lng of recombinant, N-terminal GST-tagged human B-Raf protein kinase (Δ1-415, Upstate Inc., cat. #14-530) is dispensed to wells of a 1536 multi-well white solid plate. 60 nl of 100× concentration of test compound in DMSO is dispensed to the well by passive pin transfer and incubated for 15 minutes at room temperature (approx. 22° C.). […] The assay plates are sealed and maintained in a humidified environment. After 2 hours, 2.5 μl of PKLight protein kinase assay reagent (Cambrex, cat. #LT07-501) is dispensed. After an additional 5 minute incubation at room temperature, luminescence activity is measured on a Molecular Devices Analyst multi-mode plate reader or other suitable plate reader. Kinase inhibition results in less ATP depletion, and therefore increased luminescence signal. Negative control activity is measured with DMSO lacking any test compound. The positive control is [N-(3-trifluoromethyl-4-chlorophenyl)-N′-(4-(2-methylcarbamoyl-pyridin-4-yl)oxyphenyl)urea], aka Bay 43-9006. Efficacy is measured as a percentage of positive control activity.

VEGFR2 kinase = VEGFR2 kinase (Homo sapiens, UniProt P35968); experiment: In vitro VEGFR2 kinase assay; conditions: read-out: VEGFR2 Assay IC50 μM
Method: as §1, §2

Measured: IC50

CCOc1cc(OCC)cc(C(=O)Nc2cccc(Oc3ccnc(-c4cnn(C)c4)c3)c2)c1
> 10 µM: all assays above
